Experimental melting point values from OPERA 2.9

Data: OPERA 2.9 data sets, kmansouri/OPERA on GitHub.

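OPERA's authors assembled the values from existing databases and did not measure them anew. A listed value is a point estimate from one report or more. Method and conditions are not stated for these values. Where a salt, mixture or single isomer is drawn, the source does not say that exactly this form was tested. Unmarked limits or estimates from the upstream databases cannot be ruled out.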

The melting point is given in degrees Celsius. Cells with "n/a" have no entry in this list.

structure (SMILES)	name	MP (°C)
O=C(CC(=O)NCc1ccccc1)NCc1ccccc1	n,n'-dibenzylmalonamide	120
CCCCCCCCCC(=O)Oc1ccc(C(=O)O)cc1	4-decanoyloxybenzoic Acid	140
CCCCC(CC)C(c1ccc(O)cc1)c1ccc(O)cc1 (stereo not given)	4,4'-(2-Ethylhexane-1,1-diyl)diphenol	89.8
Cc1sc2ncnc(NN)c2c1C	4-Hydrazinyl-5,6-dimethylthieno[2,3-d]pyrimidine	209
CC(C)CCCCCCCCCCCCCCC(=O)OCC(COC(=O)CCCCCCCCCCCCCCC(C)C)(COC(=O)CCCCCCCCCCCCCCC(C)C)COC(=O)CCCCCCCCCCCCCCC(C)C	Pentaerythrityl tetraisostearate	-29
COC1=Cc2ccccc2Nc2ccccc21	10-Methoxyiminostilbene	125
O=C(c1ccc(Oc2ccccc2)cc1)c1ccc(C(=O)c2ccc(Oc3ccccc3)cc2)cc1	Methanone, 1,4-phenylenebis[(4-phenoxyphenyl)-	216.1
CCCCCCCCCCCC(=O)OCC(C)(C)C=Nc1ccc(N=CC(C)(C)COC(=O)CCCCCCCCCCC)cc1	n/a	13
CCCCC(=O)OCC(=O)[C@H]1[C@H](C)C[C@H]2[C@@H]3C[C@H](F)C4=CC(=O)C=C[C@]4(C)[C@H]3[C@@H](O)C[C@@]21C	n/a	207
CCSc1ccccc1C(=O)O	2-(ethylthio)benzoic acid	136
COc1ccccc1NCCC(=O)O	b-Alanine, N-(2-methoxyphenyl)-	85
CC(C)(C)N(NC(=O)c1ccccc1)C(=O)c1ccc(C#N)cc1	N'-Benzoyl-4-cyano-N-(2-methyl-2-propanyl)benzohydrazide	200
Nc1nc2c(s1)COc1ccccc1-2	4H-chromeno[4,3-d]thiazol-2-amine	191
CC(C)(C)OC(=O)N1CCN(c2ccc(N)nc2)CC1	Tert-butyl 4-(6-aminopyridin-3-yl)piperazine-1-carboxylate	133
Cn1c(Cl)c(C=O)c2cc(C=O)ccc21	2-chloro-1-methyl-1H-indole-3,5-dicarbaldehyde	165
C=C/C=C/CC	(E)-1,3-Hexadiene	-102
Nc1c(-c2ccccc2)nc2ccccn12	Imidazo(1,2-a)pyridine, 3-amino-2-phenyl-	154
CCCCCCCCNC(=O)Nc1ccc(Cc2ccc(NC(=O)NCCCCCCCC)cc2)cc1	N,N'-[Methylenedi(4,1-phenylene)]bis(N'-octylurea)	217.5
CCC[C@H]1CC[C@H](C2CC=C(c3ccc(OCC)c(F)c3F)CC2)CC1 (some centres not stated)	n/a	71
Nc1ccccc1C(=O)N1CCOCC1	(2-Aminophenyl)(morpholin-4-yl)methanone	75
Cn1ccnc1C(N)c1ccccc1 (stereo not given)	1-(1-Methyl-1H-imidazol-2-yl)-1-phenylmethanamine	52
CC1CCc2c(C(=O)O)csc2C1 (stereo not given)	n/a	179
COc1cc(NS(=O)(=O)c2ccccc2)c2c(c1N)C(=O)c1ccccc1C2=O	n/a	236.2
NC(=S)N1CCCC1	pyrrolidine-1-carbothioamide	141
CCCCCCCCCCCC(=O)OCC(C)(C)C=NCCCCCCN=CC(C)(C)COC(=O)CCCCCCCCCCC	n/a	1.625
Cc1cc(C(=O)CCl)c(C)n1-c1cccc(C(F)(F)F)c1	n/a	97
S=c1[nH]c2cc(Cl)cnc2[nH]1	6-Chloro-1,3-dihydro-2H-imidazo[4,5-b]pyridine-2-thione	353
COc1cccc(NCCC#N)c1	3-(3-Methoxyanilino)propanenitrile	82
COC(=O)CC(C)(C)C(Cl)CC(Cl)(Cl)C(F)(F)F (stereo not given)	n/a	-63.08
c1cnc2c(c1)NCCC2	1,2,3,4-tetrahydro-1,5-naphthyridine	104
O=C(O)c1ccc(F)c(S(=O)(=O)Cl)c1	3-(chlorosulfonyl)-4-fluorobenzoic acid	139
COc1cc(N)c([N+](=O)[O-])cc1OC	4,5-dimethoxy-2-nitroaniline	175

The 2 lowest values of MP among the entries above:

structure (SMILES)	name	MP (°C)
C=C/C=C/CC	(E)-1,3-Hexadiene	-102
COC(=O)CC(C)(C)C(Cl)CC(Cl)(Cl)C(F)(F)F (stereo not given)	n/a	-63.08